Each molecule was assayed against cAMP and cAMP-inhibited cGMP 3',5'-cyclic phosphodiesterase 10A (Homo sapiens, UniProt Q9Y233).

By UniProt entry, the sequences of proteins in these tests, tags left out. Where a name states a change or a piece, a line headed by the entry shows the natural chain unless it says otherwise.
UniProt Q9Y233: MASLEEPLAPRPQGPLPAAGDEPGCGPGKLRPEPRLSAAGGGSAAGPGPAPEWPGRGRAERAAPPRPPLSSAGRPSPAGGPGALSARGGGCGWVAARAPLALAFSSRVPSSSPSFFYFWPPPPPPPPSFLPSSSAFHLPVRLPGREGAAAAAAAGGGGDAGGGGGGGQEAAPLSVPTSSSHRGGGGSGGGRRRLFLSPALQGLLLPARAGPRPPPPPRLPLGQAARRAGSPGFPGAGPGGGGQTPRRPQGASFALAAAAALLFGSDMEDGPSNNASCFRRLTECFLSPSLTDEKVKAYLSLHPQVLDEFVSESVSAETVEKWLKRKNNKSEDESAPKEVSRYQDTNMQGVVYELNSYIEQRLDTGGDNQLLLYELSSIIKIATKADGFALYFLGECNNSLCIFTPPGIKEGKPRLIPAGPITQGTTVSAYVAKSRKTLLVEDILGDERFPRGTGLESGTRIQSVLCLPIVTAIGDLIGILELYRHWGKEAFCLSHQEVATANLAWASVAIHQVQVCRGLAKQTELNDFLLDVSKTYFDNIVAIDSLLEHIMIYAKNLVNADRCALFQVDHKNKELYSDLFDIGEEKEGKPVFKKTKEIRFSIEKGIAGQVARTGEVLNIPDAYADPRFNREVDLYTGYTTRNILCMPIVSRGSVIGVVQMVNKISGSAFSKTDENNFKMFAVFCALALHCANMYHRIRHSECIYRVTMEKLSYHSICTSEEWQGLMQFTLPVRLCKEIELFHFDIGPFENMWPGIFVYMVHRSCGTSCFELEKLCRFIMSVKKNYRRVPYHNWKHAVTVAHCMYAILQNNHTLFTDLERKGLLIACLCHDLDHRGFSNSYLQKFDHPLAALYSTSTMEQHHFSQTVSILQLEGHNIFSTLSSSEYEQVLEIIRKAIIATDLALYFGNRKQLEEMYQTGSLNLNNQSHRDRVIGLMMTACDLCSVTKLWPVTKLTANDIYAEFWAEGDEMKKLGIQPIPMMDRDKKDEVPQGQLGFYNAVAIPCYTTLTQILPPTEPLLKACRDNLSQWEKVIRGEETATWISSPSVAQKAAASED

Row | SMILES | IC50 [nM]
1 | CNC(=O)c1cccc(-c2nccnc2C2CN(c3ccc4ccccc4n3)C2)c1 | 0.7
2 | Cc1cccc(C(=O)N2CC(c3nccnc3-c3ccccc3)C2)n1 | 3670
3 | COc1ccc(-c2nccnc2C2CN(c3ccc4ccccc4n3)C2)cc1 | 2
4 | c1ccc2nc(N3CC(c4nccnc4-c4ccncc4)C3)ccc2c1 | 4
5 | CCOC(=O)c1ccc(-c2nccnc2C2CN(c3ccc4ccccc4n3)C2)cc1 | 2
6 | Fc1cc(-c2nccnc2C2CN(c3ccc4ccccc4n3)C2)ccn1 | 10
7 | CC(C)(C)OC(=O)N1CC=C(c2nccnc2C2CN(c3ccc4ccccc4n3)C2)CC1 | 0.7
8 | c1ccc(-c2cccc(-c3nccnc3C3CN(c4ccc5ccccc5n4)C3)c2)cc1 | 2
9 | N#Cc1ccc(-c2nccnc2C2CN(c3ccc4ccccc4n3)C2)cc1F | 6
10 | CC(C)Oc1ccc(-c2nccnc2C2CN(c3ccc4ccccc4n3)C2)cc1 | 7.23
11 | O=S(=O)(c1ccc(-c2nccnc2C2CN(c3ccc4ccccc4n3)C2)cc1)N1CCCCC1 | 21.2
12 | CN(C(=O)OC(C)(C)C)C1CCN(c2nccnc2C2CN(c3ccc4ccccc4n3)C2)C1 (stereo unspecified) | 2
13 | CC(C)(C)OC(=O)N1C[C@@H]2CN(c3nccnc3C3CN(c4ccc5ccccc5n4)C3)C[C@@H]2C1 | 1
14 | CC(C)(C)OC(=O)N1CC2CN(c3nccnc3C3CN(c4ccc5ccccc5n4)C3)CC2C1 (stereo unspecified) | 3
15 | OC[C@@H]1CCN(c2nccnc2C2CN(c3ccc4ccccc4n3)C2)C1 | 6
16 | OC[C@H]1CCN(c2nccnc2C2CN(c3ccc4ccccc4n3)C2)C1 | 6
17 | CC(C)(C)OC(=O)N[C@@H]1CCN(c2nccnc2C2CN(c3ccc4ccccc4n3)C2)C1 | 21
18 | COC[C@H]1CCCN1c1nccnc1C1CN(c2ccc3ccccc3n2)C1 | 811

Row | SMILES | IC50 [nM]
19 | COC1CN(c2nccnc2C2CN(c3ccc4ccccc4n3)C2)C1 | 21
20 | CN1CCN(c2nccnc2C2CN(c3ccc4ccccc4n3)C2)CC1=O | 2.2
21 | OCC1(CC2CC2)CCN(c2nccnc2C2CN(c3ccc4ccccc4n3)C2)CC1 | 4
22 | CC(=O)Nc1cccc(-c2nccnc2C2CN(c3ncc4ccccc4n3)C2)c1 | 0.635
23 | CS(=O)(=O)Nc1cccc(-c2nccnc2C2CN(c3ncc4ccccc4n3)C2)c1 | 9.59
24 | Cn1ccc2cc(-c3nccnc3C3CN(c4ncc5ccccc5n4)C3)ccc21 | 5.95
25 | O=C1Cc2cc(-c3nccnc3C3CN(c4ncc5ccccc5n4)C3)ccc2N1 | 9.46
26 | Cc1cccc(-c2nccnc2C2CN(c3ccc4ccccc4n3)C2)c1 | 1.78
27 | COc1cccc(-c2nccnc2C2CN(c3ncc4ccccc4n3)C2)c1 | 9.29
28 | OCC1CCN(c2nc3ccccc3nc2C2CN(c3ccc4ccccc4n3)C2)CC1 | 2.43
29 | Oc1cccc(-c2nc3ccccc3nc2C2CN(c3ccc4ccccc4n3)C2)c1 | 0.99
30 | Oc1cccc(-c2nccnc2C2CN(c3ccc4ccccc4n3)C2)c1 | 4.65
31 | Nc1ccccc1-c1nccnc1C1CN(c2ccc3ccccc3n2)C1 | 133
32 | COc1cc(-c2nccnc2C2CN(c3ccc4ccccc4n3)C2)ccc1F | 2.98
33 | OCC1CCN(c2nccnc2C2CN(c3ncc4cccc(Cl)c4n3)C2)CC1 | 11.7
34 | OCC1CCN(c2nccnc2C2CN(c3cnc4ccc(Cl)cc4n3)C2)CC1 | 0.5
35 | COc1cccc(-c2nccnc2C2CN(c3nc4ccc(OC)cc4s3)C2)c1 | 10
36 | O=C(c1nc2ccccc2[nH]1)N1CC(c2nccnc2Oc2ccccc2)C1 | 730
